Measurements reported in BindingDB's records for patent US10040791 (Daiichi Sankyo Company, Limited, 2018).

Amino acid sequences for entries named in this document (tags omitted). Residues count along the entry.
UniProt O75874, 2-414 R132H limits assumed: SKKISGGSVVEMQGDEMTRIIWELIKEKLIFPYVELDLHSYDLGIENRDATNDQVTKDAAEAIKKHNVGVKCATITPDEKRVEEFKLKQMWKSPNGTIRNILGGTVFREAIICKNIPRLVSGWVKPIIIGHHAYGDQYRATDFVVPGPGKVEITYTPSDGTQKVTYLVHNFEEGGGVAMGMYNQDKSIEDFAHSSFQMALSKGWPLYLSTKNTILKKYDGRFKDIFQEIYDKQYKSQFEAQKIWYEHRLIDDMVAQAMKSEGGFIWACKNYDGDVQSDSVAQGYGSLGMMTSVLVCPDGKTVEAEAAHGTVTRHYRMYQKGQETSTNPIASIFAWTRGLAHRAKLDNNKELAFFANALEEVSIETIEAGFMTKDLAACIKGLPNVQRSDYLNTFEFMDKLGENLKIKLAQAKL

Target: Isocitrate dehydrogenase [NADP] cytoplasmic [R132H] (Homo sapiens, UniProt O75874, R132H)
Assay: Inhibitory Activity Against IDH1R132H and IDH1R132C Enzymes
Conditions: pH 7.5; 25 °C

Compound | IC50 [nM]
Cc1cn(C(=O)c2c(-c3c(Cl)cc(Cl)cc3Cl)noc2C(F)(F)F)c2cccc(/C=C/C(=O)O)c12 [US10040791, Example 61] | 36
CC(C)(F)c1onc(-c2c(Cl)cc(Cl)cc2Cl)c1C(=O)n1cc(C2CC2)c2c(/C=C/C(=O)O)cccc21 [US10040791, Example 71] | 81
Cc1cn(C(=O)c2c(-c3ccc(Cl)cc3Cl)noc2C2(C)COC2)c2cccc(/C=C/C(=O)O)c12 [US10040791, Example 78] | 33
NC[C@H]1CCN(c2onc(-c3c(Cl)cccc3Cl)c2C(=O)n2ccc3c(/C=C/C(=O)O)cccc32)C1 [US10040791, Example 139] | 183

Now those with a lower IC50, led by results:

IC50 [nM] | Compound
11 | CCC1(c2onc(-c3c(Cl)cccc3Cl)c2C(=O)n2ccc3c(/C=C/C(=O)O)cccc32)COC1 [US10040791, Example 5]
12 | Cc1cn(C(=O)c2c(-c3c(Cl)cc(Cl)cc3Cl)noc2C2(C#N)CCC2)c2cccc(/C=C/C(=O)O)c12 [US10040791, Example 93]
11 | Cn1cc(C(=O)c2c(-c3c(Cl)cc(Cl)cc3Cl)noc2C(C)(C)C)c2cccc(/C=C/C(=O)O)c21 [US10040791, Example 164]
